Target: Sodium- and chloride-dependent GABA transporter 1 (Mus musculus, UniProt P31648)
Experiment: Inhibition of [3H]GABA uptake at mouse GAT1 expressed in D8 cells
Type: cell-based
In short: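 D8 cells in RPMI1640 with 10% FBS grown to near confluence (~60,000 cells/well), rinsed with PBS, pre-incubated 10 min at rt in HBSS. [3H]-GABA added to 151 nM final, incubated 20 min at rt. Stopped by aspirating HBSS, three rapid cold PBS washes, cells solubilized in 2 N NaOH; uptake quantified by liquid scintillation counting.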

IC50: 456 µM
Compound: O=C(O)[C@@H]1CCCNC1 [(R)-NIPECOTIC ACID]

Source: ChEMBL document CHEMBL1140002, “Synthesis and biological evaluation of (R)-N-(diarylmethylthio/sulfinyl)ethyl/propyl-piperidine-3-carboxylic acid hydrochlorides as novel GABA uptake inhibitors” (Bioorg Med Chem Lett, 2007)
